We go through one substance from patent publication US20020183271A1, “Methods of treatment involving human MDA-7” (priority 2000, published 2002).

One experiment deals with SkBr3 (Her2+). Kind of experiment: Herceptin / Ad-mda7 trypan blue exclusion assay. In kind it is cell-based. To be noted: Herceptin alone, 1 μg/mL, three days. On the procedure: (§1) The breast cancer SkBr3 (Her2+) and MCF-7 (Her2-) cell lines were both obtained from ATCC. Cells were plated at a density of 1000 cells/well in Nunc 2-chamber slides and propagated in DMEM medium with 10% FBS. The following day, the cells were left untreated or treated with Ad-mda7 at (increasing MOIs: 0, 500, 1000 and 2000 vp/cell) without (M series) or with Herceptin (M+H series) at a final concentration of 1 μg/mL. The cells were washed after 3 hours and growth media (with or without Herceptin, as indicated) was replaced. Three days later viable cells were counted using the trypan blue exclusion assay (average of 3-4 fields) and plotted as shown in FIG. 15. Herceptin alone yields approximately 12% dead cells in both cell lines.

The next experiment deals with MCF-7 (Her2-). Description: Herceptin / Ad-mda7 trypan blue exclusion assay. In kind it is cell-based, human. Conditions: Herceptin alone, 1 μg/mL, three days. The procedure: as §1

For the substance “Herceptin: immunotherapy used at 1 μg/mL on breast cancer cell lines”, the dead cells entry in the experiment with SkBr3 (Her2+) and in the experiment on MCF-7 (Her2-) was “approximately 12%” in each case.
